In assay [1] the target is AChE (Electric-eel EC 3.1.1.7) (Electrophorus electricus, UniProt O42275). To be noted: read-out: AChE ± SEM (IC50), SEM of five assays.
For assay [2], the target named is BChE (horse serum EC 3.1.1.8) (Equus caballus, UniProt P81908). The settings on record: read-out: BChE ± SEM (IC50), SEM of five assays.

Amino acid sequences for entries named in this document (tags omitted). Residues count along the entry.
UniProt O42275, 24-633: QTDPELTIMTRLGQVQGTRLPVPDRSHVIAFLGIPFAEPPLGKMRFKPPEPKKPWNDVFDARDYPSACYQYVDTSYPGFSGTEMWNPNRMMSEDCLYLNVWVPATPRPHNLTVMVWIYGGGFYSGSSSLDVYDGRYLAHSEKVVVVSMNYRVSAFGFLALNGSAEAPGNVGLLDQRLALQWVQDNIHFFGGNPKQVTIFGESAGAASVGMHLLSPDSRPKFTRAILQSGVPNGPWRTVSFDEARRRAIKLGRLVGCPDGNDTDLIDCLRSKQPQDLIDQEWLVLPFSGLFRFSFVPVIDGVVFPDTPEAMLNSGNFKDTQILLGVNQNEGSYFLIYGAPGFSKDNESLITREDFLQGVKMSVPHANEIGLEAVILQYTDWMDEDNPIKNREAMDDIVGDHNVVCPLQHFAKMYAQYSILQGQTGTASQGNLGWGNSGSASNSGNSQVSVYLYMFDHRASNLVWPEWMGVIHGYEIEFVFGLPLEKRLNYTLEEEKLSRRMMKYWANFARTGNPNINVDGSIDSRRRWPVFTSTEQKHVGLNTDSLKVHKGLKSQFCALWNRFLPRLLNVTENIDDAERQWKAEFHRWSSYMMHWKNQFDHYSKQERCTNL
UniProt P81908, whole entry: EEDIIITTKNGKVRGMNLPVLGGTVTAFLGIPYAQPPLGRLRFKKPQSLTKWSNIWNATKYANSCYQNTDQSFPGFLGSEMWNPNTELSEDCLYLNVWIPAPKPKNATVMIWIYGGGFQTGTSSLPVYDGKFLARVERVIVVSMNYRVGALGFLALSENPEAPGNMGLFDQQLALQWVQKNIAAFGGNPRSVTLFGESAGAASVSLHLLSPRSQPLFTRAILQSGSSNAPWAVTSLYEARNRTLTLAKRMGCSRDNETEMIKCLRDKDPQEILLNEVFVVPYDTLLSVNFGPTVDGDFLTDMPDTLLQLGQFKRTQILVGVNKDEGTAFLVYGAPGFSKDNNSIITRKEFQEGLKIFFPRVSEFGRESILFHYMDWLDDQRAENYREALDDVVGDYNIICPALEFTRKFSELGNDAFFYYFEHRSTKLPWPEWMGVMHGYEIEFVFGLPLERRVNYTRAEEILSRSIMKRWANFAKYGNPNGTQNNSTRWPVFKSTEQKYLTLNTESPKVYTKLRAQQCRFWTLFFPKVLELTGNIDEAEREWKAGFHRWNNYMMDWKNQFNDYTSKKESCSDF

What is called IC50 is the concentration at which inhibition is half-maximal. As for Allanzanthane A [reference compound], the IC50 was 8.23 ± 0.01 µM in assay [1] and 18 ± 0.06 µM in assay [2].
